Source: patent US7045532B2 (Millennium Pharmaceuticals, Inc., priority 1999, dated 2006)

Sequences of proteins named here, by UniProt entry; tags and fusion partners are left off. Residues count along the entry.
UniProt P00730, 111-419 limits assumed: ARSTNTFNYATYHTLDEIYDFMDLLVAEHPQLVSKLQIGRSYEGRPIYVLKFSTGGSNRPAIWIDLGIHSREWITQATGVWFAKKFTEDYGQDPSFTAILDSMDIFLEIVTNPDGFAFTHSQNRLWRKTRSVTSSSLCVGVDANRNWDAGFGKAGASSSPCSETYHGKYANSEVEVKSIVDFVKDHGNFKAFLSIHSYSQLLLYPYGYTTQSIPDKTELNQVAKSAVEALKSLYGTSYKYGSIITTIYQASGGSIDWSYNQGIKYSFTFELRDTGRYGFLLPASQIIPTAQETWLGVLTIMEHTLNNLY
UniProt F1RRW5, 34-1309 limits assumed: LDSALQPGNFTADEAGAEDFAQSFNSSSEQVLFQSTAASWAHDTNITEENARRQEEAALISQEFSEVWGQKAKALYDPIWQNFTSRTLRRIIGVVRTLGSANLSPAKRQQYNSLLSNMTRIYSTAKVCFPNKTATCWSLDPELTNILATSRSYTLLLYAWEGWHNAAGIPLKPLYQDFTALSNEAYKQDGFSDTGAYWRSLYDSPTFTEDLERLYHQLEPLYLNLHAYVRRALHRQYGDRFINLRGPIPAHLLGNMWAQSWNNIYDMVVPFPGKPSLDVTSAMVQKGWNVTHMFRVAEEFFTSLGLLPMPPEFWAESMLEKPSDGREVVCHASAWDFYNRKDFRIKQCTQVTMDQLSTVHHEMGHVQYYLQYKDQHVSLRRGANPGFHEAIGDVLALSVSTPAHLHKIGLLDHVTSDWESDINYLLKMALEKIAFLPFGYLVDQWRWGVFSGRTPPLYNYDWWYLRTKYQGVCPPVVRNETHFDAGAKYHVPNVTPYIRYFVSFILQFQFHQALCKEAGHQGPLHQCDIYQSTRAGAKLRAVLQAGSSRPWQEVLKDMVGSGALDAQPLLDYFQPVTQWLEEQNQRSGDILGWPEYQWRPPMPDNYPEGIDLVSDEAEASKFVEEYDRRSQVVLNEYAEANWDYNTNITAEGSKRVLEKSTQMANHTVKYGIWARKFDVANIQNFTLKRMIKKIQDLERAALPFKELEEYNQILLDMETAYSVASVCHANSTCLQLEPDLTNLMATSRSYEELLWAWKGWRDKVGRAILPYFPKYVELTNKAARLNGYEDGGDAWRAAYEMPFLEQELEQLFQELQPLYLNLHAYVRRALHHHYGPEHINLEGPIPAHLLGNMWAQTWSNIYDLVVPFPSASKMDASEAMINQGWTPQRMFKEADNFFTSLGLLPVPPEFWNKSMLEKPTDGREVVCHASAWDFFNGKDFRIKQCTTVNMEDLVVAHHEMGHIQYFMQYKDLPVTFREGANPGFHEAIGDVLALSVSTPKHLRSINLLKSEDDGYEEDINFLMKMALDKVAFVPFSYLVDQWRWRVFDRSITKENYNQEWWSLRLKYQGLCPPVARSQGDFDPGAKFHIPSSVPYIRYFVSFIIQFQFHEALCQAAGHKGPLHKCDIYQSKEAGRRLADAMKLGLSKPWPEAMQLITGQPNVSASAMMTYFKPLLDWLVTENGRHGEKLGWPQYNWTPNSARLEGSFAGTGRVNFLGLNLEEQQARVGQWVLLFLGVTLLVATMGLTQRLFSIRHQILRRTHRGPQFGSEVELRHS
UniProt Q9BYF1, 18-739 limits assumed: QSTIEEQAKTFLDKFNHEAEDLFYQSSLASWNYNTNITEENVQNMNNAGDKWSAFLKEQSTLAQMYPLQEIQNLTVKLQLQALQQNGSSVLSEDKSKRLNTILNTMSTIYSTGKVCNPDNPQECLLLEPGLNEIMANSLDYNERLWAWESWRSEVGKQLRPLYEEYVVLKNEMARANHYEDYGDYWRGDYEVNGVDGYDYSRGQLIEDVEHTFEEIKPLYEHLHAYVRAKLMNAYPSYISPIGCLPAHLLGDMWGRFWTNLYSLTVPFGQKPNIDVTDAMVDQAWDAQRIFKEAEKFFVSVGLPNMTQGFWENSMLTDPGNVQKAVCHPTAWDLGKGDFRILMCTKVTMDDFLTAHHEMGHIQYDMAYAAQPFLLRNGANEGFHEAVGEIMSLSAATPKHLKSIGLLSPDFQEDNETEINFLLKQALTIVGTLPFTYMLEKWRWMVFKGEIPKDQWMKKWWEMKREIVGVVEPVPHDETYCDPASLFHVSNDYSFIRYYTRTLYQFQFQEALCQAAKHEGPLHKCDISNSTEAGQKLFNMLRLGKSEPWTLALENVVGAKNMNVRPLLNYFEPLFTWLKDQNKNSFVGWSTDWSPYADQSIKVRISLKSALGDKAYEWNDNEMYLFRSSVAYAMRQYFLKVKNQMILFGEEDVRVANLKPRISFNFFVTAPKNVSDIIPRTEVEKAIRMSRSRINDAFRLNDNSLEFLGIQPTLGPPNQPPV

Tests used:
Carboxypeptidase A = Carboxypeptidase A (Bos taurus, UniProt P00730); experiment: Carboxypeptidase A activity assay; details: read-out: Carboxypeptidase A Activity; Ki class; compounds tested in 5% DMSO, 12 concentrations
ACE (Sigma, A2580) = ACE (Sigma, A2580) (Sus scrofa, UniProt F1RRW5); experiment: ACE enzymatic activity assay; details: read-out: ACE Activity; Ki class; compounds tested in 5% DMSO, 12 concentrations
ACE-2 = ACE-2 (Homo sapiens, UniProt Q9BYF1); experiment: Kinetic constants for ACE-2 hydrolysis of peptides (reversed phase LC); format: biochemical; details: ACE-2 hydrolysis of the peptide, pH 6.5, room temperature

Ki (Carboxypeptidase A) [µM] | Ki (ACE (Sigma, A2580)) [µM] | Compound | Km (ACE-2) [µM] | kcat (ACE-2) [s⁻¹]
10 to 50 | > 50 | O=C(O)[C@H](CC#Cc1ccccc1)N[C@H](CCc1ccccc1)C(=O)O |  | 
 |  | CSCC[C@H](NC(=O)[C@@H]1CCCN1C(=O)CNC(=O)[C@H](CCCCN)NC(=O)[C@H](Cc1cnc[nH]1)NC(=O)[C@H](CO)NC(=O)[C@H](CC(C)C)NC(=O)[C@H](CCCNC(=N)N)NC(=O)[C@@H]1CCCN1C(=O)[C@H](CCCNC(=N)N)NC(=O)[C@@H](N)CCC(N)=O)C(=O)N1CCC[C@H]1C(=O)N[C@@H](Cc1ccccc1)C(=O)O | 8 | 14
